Test results as given in US11364285B2, “Methods, compositions, and molecular targets that exploit synergies and symbioses in the termite gut” (priority 2016, dated 2022).

System: host gut and protist/symbiont genes
Assay type: in vivo
Conditions: 48 h
Method: After two days, a subset of ten termites was removed from each of the replicate colony treatments (20 total samples), cold-immobilized, surface-sterilized by a serial rinse in 0.3% sodium hypochlorite (1×) and sterilized water (2×), and dissected on Parafilm to collect digestive tracts, including salivary glands. Digestive tracts were transferred into RLA Lysis Buffer (Promega, Fitchburg, Wis., USA) and stored at −70° C. until RNA isolation. RNA extraction and cDNA synthesis was performed.
Experiments were designed after MIAME guidelines. A type II microarray design was used with a common-reference strategy. The common reference consisted of a normalized blend of all RNA samples included in the experiment. This common reference was co-hybridized against each replicate sample on single microarrays. Dye swaps were performed between replicate samples and references to check for potential dye impacts on spot intensity. […] Specifically, such microarrays contained a mix of ˜14,500 cDNA oligonucleotides representing 10,500 host gut and protist/symbiont genes, including stereotypical immune response genes, thereby providing simultaneous assessments of host and protist gene expression. Reported analyses consisted of five pairwise comparisons to a common control as denoted by the numbers 1-5 in FIG. 4. […]

## O=[N+]([O-])NC1=NCCN1Cc1ccc(Cl)nc1 [I, imidacloprid]
  Fold change: cell surface leucine-rich repeat-containing protein: 1.25
